Values quoted from earlier work, collected in patent US20240342233A1, “Herbal composition for prostate health and prostate cancer prevention” (priority 2022, published 2024).

Conditions: peripheral neuropathy, gastric symptoms, liver, kidney and heart problems, alopecia

[Se] [Selenium]
toxic dose: over 400 mcg
